Tested on: adenosine receptors

## Cn1c(=O)c2[nH]cnc2n(C)c1=O [theophylline]
  Memory-improving effects of adenosine derivatives (I) after prior administration of theophylline: the effects were reduced
